Experimental data as given in US20230382944A1, “NOVEL COCRYSTALS OF DEXAMETHASONE” (Versitech Limited, priority 2022, published 2023).

Experiment: Particle size distribution measurement by laser diffraction
Assay type: physicochemical
Details: sieved below 63 μm, n = 3
Procedure: The particle size and size distribution of the powders was determined using laser diffraction equipment, Mastersizer 3000 (Malvern Instruments Ltd, Worcestershire, UK) with Aero S dry powder disperser. Prior to the analysis, both raw DEX and DEX cocrystals powders were sifted with a diameter under 63 μm to control the particle size variation. The particle size distribution was calculated from the light scattering pattern using Mie theory. Particle size at 10% (D10), 50% (D50), 90% (D90) of the volume distribution were calculated automatically using the Mastersizer 3000 software […]. Span was calculated as (D90-D10)/D50. All the samples were measured in triplicate.

C[C@@H]1C[C@H]2[C@@H]3CCC4=CC(=O)C=C[C@]4(C)[C@@]3(F)[C@@H](O)C[C@]2(C)[C@@]1(O)C(=O)CO [DEX, 9-fluoro-11β,17,21-trihydroxy-16α-methylpregna-1,4-diene-3,20-dione, reference compound]
Volumetric size D90: 2.76 ± 1.54 μm
